Experimental findings from US8367714B2, “Cannabinoid receptor targeted agent” (Vanderbilt University, priority 2007, dated 2013) are described below.

Amino acid sequences for entries named in this document (tags omitted). A change or cut given only in a name is not applied to a line headed by its entry.
UniProt P47936: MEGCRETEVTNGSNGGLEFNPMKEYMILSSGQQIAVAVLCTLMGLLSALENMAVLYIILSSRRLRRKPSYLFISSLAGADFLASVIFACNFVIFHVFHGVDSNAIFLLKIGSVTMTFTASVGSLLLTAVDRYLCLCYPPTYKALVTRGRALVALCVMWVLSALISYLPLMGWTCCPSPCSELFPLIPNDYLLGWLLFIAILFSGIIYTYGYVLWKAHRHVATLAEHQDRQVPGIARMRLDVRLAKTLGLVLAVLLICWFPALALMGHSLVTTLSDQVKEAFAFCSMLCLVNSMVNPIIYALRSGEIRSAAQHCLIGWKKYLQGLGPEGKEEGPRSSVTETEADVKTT

The test has as its target T1, mouse CB2 receptors (Mus musculus, UniProt P47936).
T1 construct: expressed in transfected cells
Description: Displacement of [3H]-SR144528 binding to membrane fractions from DBT cells stably expressing mouse CB2 receptors. As to conditions: displacement of [3H]-SR144528, membranes of DBT cells expressing mouse CB2. How it is done:
One NIR dye labeled conjugable SR144528 (NIRmbc94 or SR-NIR) was tested for its ability to displace the binding of [^3H]-SR144528 to membrane fractions from DBT cells stably expressing mouse CB2 receptors.
On the technique in general: Displacement assays read how much labelled ligand stays bound in the presence of the test substance.

The term Ki denotes a dissociation constant, usually derived from enzyme kinetics or from competition with a known ligand. Lower therefore signals a stronger hold on the target.

For SR144528, the affinity, expressed as Ki, was 0.7 nM.
